Measured values taken from patent publication US9006205B2, “Antisense oligonucleotides against neutral sphingomyelinase and neutral sphingomyelinase inhibitor GW4869 for degenerative neurological disorders” (Rush University Medical Center, priority 2011, dated 2015).

Test system: primary human neurons
Experiment: MTT metabolism of neurons in astrocyte-neuron trans-well
Format: cell-based
Settings: neurons pretreated with different concentrations of chemical inhibitor
Experimental: Primary human astrocytes were grown to confluency on inserts. After 24 h of stimulation by the combination of Aβ (1 μM) and IL-Iβ (10 ng/ml), inserts were washed thrice with HBSS and then placed onto the wells containing primary human neurons. Therefore, in this trans-well model, although neurons and astrocytes face each other, they are separable and the effect of soluble factors released from activated astrocytes on neurons can be studied allowing analysis of neuronal and glial populations separately.
Mitochondrial activity was measured with the 3-(4,5-dimethylthiazol-2-yl)-2,5-diphenyltetrazolium bromide (MTT) assay (Sigma). The cells were grown on 24-well culture plates with 500 μl of medium and treated with various reagents according to the experimental design. […]
Primary human neurons were incubated with antisense (ASO) and scrambled oligonucleotides (ScO) against N-SMase (A) and A-SMase (FIG. 2B). After 48 h, neurons were analyzed for protein expression of N-SMase and A-SMase. […] After 6 h of treatment with activated astrocytes, apoptotic events in neurons were detected by TUNEL. In FIG. 2D, TUNEL-positive cells were counted manually in four different images of each of three coverslips by three individuals blinded to the experiment. […] Values obtained from the control group served as 100%, and data obtained in other groups were calculated as percent of control accordingly. […]

CN(C)CCCN1c2ccccc2CCc2ccccc21 [imipramine] was tested, and the “protection from activated astroglia-induced cell death (MTT metabolism)” value was “but not imipramine”.
